This experiment concerns the target Programmed Death Ligand-1 (PD-L1) (human) (UniProt Q9NZQ7). Kind of experiment: cell-based or functional assay.

As for “TPP-3615, anti-PD-L1 huIgG2 antibody cloned using the variable domains of Atezolizumab”, the IFNg [pg/ml], absolute mean, TC + HCC/1 µg/ml FLU pep + 30 µg/ml antibody (isotype TPP-1238: 787.3) worked out at 888 pg/mL; the IFNg [pg/ml], isotype corrected, FluM1 T cells + HCC2935, single agent, experiment 1 was determined as 70.7 pg/mL; the IFNg [pg/ml], isotype corrected, FluM1 T cells + HCC2935, single agent, experiment 2 stood at 42 pg/mL; the IFNg [pg/ml], isotype corrected, FluM1 T cells + HCC2935, single agent, experiment 3 was 41.9 pg/mL. Further, the IFNg [pg/ml], isotype corrected, FluM1 T cells + HCC2935, single agent, experiment 4 worked out at 26.3 pg/mL; the IFNg [pg/ml], isotype corrected, FluM1 T cells + HCC2935, single agent, experiment 5 worked out at 46.8 pg/mL; the IFNg [pg/ml], isotype corrected, FluM1 T cells + HCC2935, single agent, experiment 6 came out at 76.1 pg/mL; the IFNg [pg/ml], isotype corrected, FluM1 T cells + HCC2935, single agent, experiment 7 is -26.3 pg/mL. Moreover, the IFNg [pg/ml], isotype corrected, FluM1 T cells + HCC2935, single agent, mean of n = 7 was determined as 39.6 pg/mL.
